The values that follow come from ChEMBL document CHEMBL1156754, “Human P2Y(14) receptor agonists: truncation of the hexose moiety of uridine-5'-diphosphoglucose and its replacement with alkyl and aryl groups” (J Med Chem, 2010).

Amino acid sequences for entries named in this document (tags omitted). A change or cut given only in a name is not applied to a line headed by its entry.
UniProt Q15391, whole entry, looked up: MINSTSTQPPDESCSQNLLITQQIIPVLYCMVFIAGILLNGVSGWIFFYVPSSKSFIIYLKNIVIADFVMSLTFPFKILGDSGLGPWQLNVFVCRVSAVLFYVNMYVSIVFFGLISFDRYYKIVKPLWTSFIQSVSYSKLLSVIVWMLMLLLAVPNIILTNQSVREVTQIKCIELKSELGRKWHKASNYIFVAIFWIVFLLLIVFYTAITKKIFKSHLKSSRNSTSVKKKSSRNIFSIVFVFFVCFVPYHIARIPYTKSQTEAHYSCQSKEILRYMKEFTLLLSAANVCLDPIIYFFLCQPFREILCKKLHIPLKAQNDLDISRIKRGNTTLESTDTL
UniProt Q15077, whole entry, looked up: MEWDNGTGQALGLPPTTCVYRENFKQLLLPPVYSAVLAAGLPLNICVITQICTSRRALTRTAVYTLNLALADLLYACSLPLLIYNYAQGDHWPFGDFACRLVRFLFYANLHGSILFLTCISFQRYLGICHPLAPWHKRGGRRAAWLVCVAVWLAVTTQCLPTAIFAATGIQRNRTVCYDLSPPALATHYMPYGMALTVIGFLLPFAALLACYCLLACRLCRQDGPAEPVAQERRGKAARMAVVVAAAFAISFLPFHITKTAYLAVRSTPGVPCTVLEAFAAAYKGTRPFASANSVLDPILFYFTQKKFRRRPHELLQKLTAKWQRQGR

The target of assay [1] is P2Y purinoceptor 14 (Homo sapiens, UniProt Q15391). The conditions noted are these: hek293.
Assay [2] addresses P2Y purinoceptor 6 (Homo sapiens, UniProt Q15077). As to conditions: 1321-n1.

What is called EC50 is the concentration that produces a half-maximal response. As for `CP(=O)(O)OP(=O)(O)OC[C@H]1O[C@@H](n2ccc(=O)[nH]c2=O)[C@H](O)[C@@H]1O`, the EC50 in assay [1] came to 4.58 µM; in assay [2], 8 µM.
